# From patent US20140086890A1, “COMPOSITIONS AND METHODS FOR TREATING HYPERPROLIFERATIVE DISORDERS” (priority 2004, published 2014)
# Legend:
# [1] = tested on: human RCC cell lines (JOHW, PORJC, SAUJ and STAR); format: cell-based
# [2] = tested on: human RCC cell lines (JOHW, PORJC, SAUJ and STAR); format: cell-based; remark: listed apart in the source
smiles,measurement,setting,value
CC(C)C[C@H](NC(=O)[C@H](Cc1ccccc1)NC(=O)c1cnccn1)B(O)O [Velcade],cell lysis of presensitized RCC cells by Fas ligand (FIG. 14),[1],Increased cell lysis
same,cell lysis of presensitized RCC cells by TRAIL (FIG. 13),[2],Increased cell lysis
